# Data reported in ChEMBL document CHEMBL1153892 (Bioorg Med Chem, 2009).
# Tested on: A2780
# Experiment: Antiproliferative activity against human A2780 cells after 2 days by alamar-blue assay
# Type: functional, cell-based
# Conditions: A2780, 48 h
row,IC50 [nM],SMILES
1,750,O=C1C=CC(=O)c2cc3c(cc21)CCCC3
2,1400,O=C1c2cc3c(cc2C(=O)C2OC12)CCCC3 (stereo not drawn)
3,6900,O=C1C2=C(C(=O)c3cc4c(cc31)CCCC4)S(=O)(=O)CCN2
